According to US10947188B2, “Small molecule ferroptosis inducers” (THE TRUSTEES OF COLUMBIA UNIVERSITY IN THE CITY OF NEW YORK, priority 2016, dated 2021):

Key:
HT-1080 = experiment: Modulatory profiling: Alamar Blue viability, lethal compound cotreated with death modulator (EC50, AUC); format: cell-based; design: AUC, modulator HT.ALLN / AUC HT.ATA / AUC HT.ActD / AUC HT.BHA / AUC HT.BHT / AUC HT.BocD / AUC HT.CHX / AUC HT.Co2+ / AUC HT.CspA / AUC HT.DPQ / AUC HT.EGTA / AUC HT.Gd3+ / AUC HT.LNAME / AUC HT.Lmim / AUC HT.NAD+ / AUC HT.Nec-1 / AUC HT.Pepstatin / AUC HT.SP600125 / AUC HT.TLCK / AUC HT.U0126: unit not given beside the values; on AUC HT.BHA: reference of the scale not given here; on AUC HT.EGTA: reference of the scale not given here
BJeLR = experiment: as above; format: cell-based, human; conditions: BJeLR cells, modulatory profile value (AUC)

## O=[N+]([O-])c1ccc(O)c([N+](=O)[O-])c1
HT-1080; HT-1080, modulator ATA
  AUC HT.ATA: −0.03893
HT-1080; HT-1080, modulator ActD
  AUC HT.ActD: 0.1186
HT-1080; HT-1080, modulator BHA
  AUC HT.BHA: −0.1811
HT-1080; HT-1080, modulator BHT
  AUC HT.BHT: −0.1843
HT-1080; HT-1080, modulator BocD
  AUC HT.BocD: 0.05041
HT-1080; HT-1080, modulator CHX
  AUC HT.CHX: 0.2098
HT-1080; HT-1080, modulator Co2+
  AUC HT.Co2+: 0.04336
HT-1080; HT-1080, modulator CspA
  AUC HT.CspA: −0.173
HT-1080; HT-1080, modulator DPQ
  AUC HT.DPQ: 0.08157
HT-1080; HT-1080, modulator EGTA
  AUC HT.EGTA: −0.096
HT-1080; HT-1080, modulator Gd3+
  AUC HT.Gd3+: −0.02829
HT-1080; HT-1080, modulator LNAME
  AUC HT.LNAME: −0.008859
HT-1080; HT-1080, modulator Lmim
  AUC HT.Lmim: 0.02524
HT-1080; HT-1080, modulator NAD+
  AUC HT.NAD+: 0.1164
HT-1080; HT-1080, modulator NMMA
  AUC HT.NMMA: 0.01661
HT-1080; HT-1080, modulator Nec-1
  AUC HT.Nec-1: 0.03763
HT-1080; HT-1080, modulator Pepstatin
  AUC HT.Pepstatin: 0.01716
HT-1080; HT-1080, modulator SP600125
  AUC HT.SP600125: −0.1203
HT-1080; HT-1080, modulator TLCK
  AUC HT.TLCK: 0.03577
HT-1080; HT-1080, modulator U0126
  AUC HT.U0126: −0.02156
HT-1080; HT-1080, modulator atoc
  HT.atoc (AUC): 0.09944
HT-1080; HT-1080, modulator bCarotene
  HT.bCarotene (AUC): −0.009997
HT-1080; HT-1080, modulator deferox
  HT.deferox (AUC): 0.1114
HT-1080; HT-1080, modulator digoxin
  HT.digoxin (AUC): −0.07133
HT-1080; HT-1080, modulator trolox
  HT.trolox (AUC): 0.03607
HT-1080; HT-1080, modulator zVAD
  HT.zVAD (AUC): 0.04233
HT-1080; HT-1080 cells, lethal compound cotreated with modulator ALLN, modulatory profile value (AUC)
  AUC, modulator HT.ALLN: 0.1147
BJeLR
  AUC, modulator BJ.Lmin/NAD+: 0.07621
